From patent US9745283B2, “Uracil derivatives as AXL and c-MET kinase inhibitors” (priority 2011, dated 2017)
pIC50: −log10 of the molar value.

Sequences of proteins named here, by UniProt entry; tags and fusion partners are left off. Residues count along the entry.
UniProt P30530, 26-894: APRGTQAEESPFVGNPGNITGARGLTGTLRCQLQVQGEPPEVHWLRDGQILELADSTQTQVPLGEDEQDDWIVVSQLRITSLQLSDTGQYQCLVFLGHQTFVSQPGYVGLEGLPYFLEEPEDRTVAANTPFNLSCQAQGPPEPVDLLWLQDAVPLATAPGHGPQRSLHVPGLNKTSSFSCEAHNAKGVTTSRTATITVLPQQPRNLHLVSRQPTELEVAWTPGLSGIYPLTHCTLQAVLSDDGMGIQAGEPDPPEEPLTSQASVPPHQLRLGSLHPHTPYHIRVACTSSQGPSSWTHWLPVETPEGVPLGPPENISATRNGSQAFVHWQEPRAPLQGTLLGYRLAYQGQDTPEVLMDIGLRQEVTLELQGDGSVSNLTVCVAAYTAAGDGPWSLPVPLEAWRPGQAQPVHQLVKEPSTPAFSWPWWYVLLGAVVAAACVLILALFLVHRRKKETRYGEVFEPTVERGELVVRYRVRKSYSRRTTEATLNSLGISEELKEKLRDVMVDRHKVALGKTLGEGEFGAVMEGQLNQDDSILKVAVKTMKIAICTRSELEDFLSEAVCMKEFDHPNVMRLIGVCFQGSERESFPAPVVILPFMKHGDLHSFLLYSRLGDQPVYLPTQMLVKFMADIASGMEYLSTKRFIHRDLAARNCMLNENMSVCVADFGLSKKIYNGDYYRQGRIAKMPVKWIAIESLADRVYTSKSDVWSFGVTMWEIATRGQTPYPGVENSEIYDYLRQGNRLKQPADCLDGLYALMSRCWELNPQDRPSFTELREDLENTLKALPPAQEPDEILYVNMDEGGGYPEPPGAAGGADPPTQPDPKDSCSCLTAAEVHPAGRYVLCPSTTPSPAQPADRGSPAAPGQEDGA

Biological target: recombinant human baculovirus-expressed AXL (Homo sapiens (Human), UniProt P30530)
Assay: AXL Kinase Assay (HTRF KinEASE)
Type: biochemical
Conditions: average of two or more determinations

SMILES	pIC50
COc1cc2nccc(Oc3ccc(NC(=O)c4cn(CCCCO)c(=O)n(-c5ccc(F)cc5)c4=O)cc3F)c2cc1OC [Example 55, 3-(4-Fluorophenyl)-1-(4-hydroxybutyl)-2,4-dioxo-1,2,3,4-tetrahydropyrimidine-5-carboxylic acid [4-(6,7-dimethoxyquinolin-4-yloxy)-3-fluorophenyl]-amide]	> 8.00
C#CCn1cc(C(=O)Nc2ccc(Oc3ccnc4cc(OC)c(OC)cc34)c(F)c2)c(=O)n(CC#C)c1=O [Example 98, 2,4-Dioxo-1,3-di-prop-2-ynyl-1,2,3,4-tetrahydro-pyrimidine-5-carboxylic acid [4-(6,7-dimethoxy-quinolin-4-yloxy)-3-fluoro-phenyl]-amide]	> 8.00
